Drawing on PubChem BioAssay AID1359 (The Scripps Research Institute Molecular Screening Center, 2008), this text covers activation for 20 compounds.

Sequences of proteins named here, by UniProt entry; tags and fusion partners are left off.
UniProt P49146, whole entry, looked up: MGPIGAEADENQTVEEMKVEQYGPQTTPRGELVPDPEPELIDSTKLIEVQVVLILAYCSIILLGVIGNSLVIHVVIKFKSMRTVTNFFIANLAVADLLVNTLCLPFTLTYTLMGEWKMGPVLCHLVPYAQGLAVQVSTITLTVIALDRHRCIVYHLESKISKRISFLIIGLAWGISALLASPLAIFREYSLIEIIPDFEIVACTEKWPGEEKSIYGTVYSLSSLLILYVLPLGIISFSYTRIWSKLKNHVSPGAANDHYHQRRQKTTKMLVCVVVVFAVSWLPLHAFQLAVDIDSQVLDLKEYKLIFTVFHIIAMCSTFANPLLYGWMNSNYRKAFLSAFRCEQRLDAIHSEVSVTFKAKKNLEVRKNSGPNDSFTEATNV

This is a selection; strong and weak results do not stand in their true shares. Activity calls are given as the source filed them. Rule as the data show it: active = activation above about 27%; inactive = the rest.

The test addresses Neuropeptide Y receptor type 2 (Homo sapiens) (UniProt P49146). Put plainly: human Y2 receptor positive modulation or activation – cell-based, primary screen (AID 1359).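 Also: cells stimulated with NPY near EC25 plus isoproterenol at EC100; 0% = vehicle plus submaximal agonist and 100% = vehicle plus saturating agonist.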 Conditions: cells expressing NPY-Y2, potentiator/agonist read-out; at 3.6 µM; stronger effect = higher value.
For the compound `O=[As](O)(c1ccccc1)c1ccc(O)cc1`, the activation was inactive: 6.63%.
As to `CC(=O)NC(SC(=S)N(C)C)C(Cl)(Cl)Cl` (stereo not given), the activation was inactive: 16.8%.
The value for `O=[N+]([O-])c1ncn(CCn2cnc([N+](=O)[O-])n2)n1` was inactive: -4.2%; that for `Cc1ccc(NP(=O)(Oc2cccc(C)c2)Oc2cccc(C)c2)nc1` was inactive: -8.64%.
Regarding `CCOC(=O)NC(Sc1ccccc1)C(Cl)(Cl)Cl` (stereo not given), the activation is inactive: -9.21%.
As for `c1ccc(-c2nn[nH]n2)c(-c2nn[nH]n2)c1`, the figure is inactive: -6.82%; as for `O=C(NC1CCS(=O)(=O)C1)NP(=S)(Oc1ccccc1)Oc1ccccc1` (stereo not given), inactive: -1.07%; as for `CCNC(=S)/N=C(\N)N[N+](=O)[O-]`, inactive: -2.13%.
The value for `O=c1c2cc([N+](=O)[O-])ccc2[nH]c2c([N+](=O)[O-])cc([N+](=O)[O-])cc12` was inactive: 10.8%.
Consider `CN(C)C(=O)Oc1noc2ccccc12`, for which the activation was inactive: -6.08%.
As for `Cc1ccccc1OP(=O)(Nc1ccccn1)Oc1ccccc1C`, the activation was inactive: -2.92%.
The value for `CCC(=O)N1C2C3N(C(=O)CC)C1C1N(C(=O)CC)C(C(N1C(=O)CC)N3C(=O)CC)N2C(=O)CC` was inactive: 15.2%; that for `CC(=O)NC(SC(=S)N(CC(C)C)CC(C)C)C(Cl)(Cl)Cl` (stereo not given) was inactive: -14.4%.
The value for `Cc1ccc(OP(=O)(Nc2ccccn2)Oc2ccc(C)cc2)cc1` was inactive: -1.11%; that for `COC(=O)c1cc2c(s1)N=C(c1ccccc1)N(C)P2(=O)N1CCOCC1` (stereo not given) was inactive: 3.11%; that for `CC(C)(C)C(=O)NC(Sc1ccccc1)C(Cl)(Cl)Cl` (stereo not given) was inactive: 3.62%.
As for `CCOc1ccc(C2=NCC(CBr)S2)cc1` (stereo not given), the figure is inactive: 12.2%; as for `O=P1(Nc2nc3ccc(Cl)cc3s2)COc2ccccc2O1` (stereo not given), inactive: -5.82%.
`CC(=O)Nc1ccc(Oc2c([N+](=O)[O-])cc([N+](=O)[O-])cc2[N+](=O)[O-])cc1`: the activation was inactive: -9.48%.
The value for `CC(=O)Nc1ccc([As](=O)(O)O)c(O)c1` was inactive: -8.58%.
